Laboratory results published in publication PMC10223898, “Discovery of AI-2 Quorum Sensing Inhibitors Targeting the LsrK/HPr Protein–Protein Interaction Site by Molecular Dynamics Simulation, Virtual Screening, and Bioassay Evaluation” (Pharmaceuticals, 2023).

Legend:
[1] = biological target: T1, LsrK (S. typhimurium, UniProt Q8ZKQ6 1-530); test: SPR; details: both partners purified
T1 construct: LsrK (autoinducer-2 kinase) of S. typhimurium; the LsrK encoding gene was amplified and cloned with BamHI and XhoI into pET-28a; cloning with BamHI/XhoI into pET-28a may also add vector-encoded N-terminal residues (surmise); The cited crystal structure PDB 5YA1 of LsrK/HPr served only for modelling; also called His-tagged LsrK; source: E. coli BL21(DE3), pET-28a, purified (Ni-NTA, dialysis); not …
T1 sequence (looked up): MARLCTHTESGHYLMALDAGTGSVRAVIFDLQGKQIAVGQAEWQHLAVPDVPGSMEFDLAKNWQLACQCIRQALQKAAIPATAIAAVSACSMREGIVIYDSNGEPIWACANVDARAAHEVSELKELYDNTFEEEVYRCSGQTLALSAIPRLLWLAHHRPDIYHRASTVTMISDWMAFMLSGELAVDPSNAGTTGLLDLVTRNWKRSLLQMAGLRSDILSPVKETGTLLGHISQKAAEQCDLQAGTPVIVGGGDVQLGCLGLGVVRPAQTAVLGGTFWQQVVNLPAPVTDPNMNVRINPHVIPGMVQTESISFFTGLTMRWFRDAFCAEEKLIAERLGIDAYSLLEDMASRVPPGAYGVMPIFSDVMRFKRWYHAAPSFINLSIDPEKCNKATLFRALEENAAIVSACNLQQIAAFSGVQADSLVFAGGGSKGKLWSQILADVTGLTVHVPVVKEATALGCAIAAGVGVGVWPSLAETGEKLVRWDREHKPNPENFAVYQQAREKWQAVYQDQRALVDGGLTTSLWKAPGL

[2] = biological target: T2, LsrK-N protein (HPr-binding domain of LsrK, residues 1-260) (S. typhimurium, UniProt Q8ZKQ6 1-260); test: SPR; details: both partners purified
T2 construct: cloning with BamHI/XhoI into pET-28a may also add vector-encoded N-terminal residues (surmise); also called N-terminal domain; source: E. coli BL21(DE3), pET-28a, purified (Ni-NTA, dialysis); not shown: His6, C-terminal, kept
T2 sequence (looked up): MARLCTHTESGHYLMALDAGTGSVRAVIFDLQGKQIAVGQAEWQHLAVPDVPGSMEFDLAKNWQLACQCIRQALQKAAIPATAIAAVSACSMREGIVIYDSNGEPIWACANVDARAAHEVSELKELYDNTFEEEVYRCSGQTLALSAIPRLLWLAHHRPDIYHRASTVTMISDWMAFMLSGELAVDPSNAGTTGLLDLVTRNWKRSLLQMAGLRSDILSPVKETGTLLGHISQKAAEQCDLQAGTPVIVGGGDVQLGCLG

B1: HPr (natural protein)
chain: not shown
notes: HPr (phosphocarrier protein of the PTS) of S. typhimurium; the HPr encoding gene was amplified and cloned with EcoRI and NotI into pGEX-4T-1; No cleavage of the GST tag is described; the protein was eluted with glutathione and concentrated, so GST was probably still attached in the SPR assay (surmise); source: E. coli BL21(DE3), pGEX-4T-1, purified (GST Gravity column, eluted with glutathione, …)
Kd [1]: 70.5 nM | Kd [2]: 97.7 nM
